From ChEMBL document CHEMBL5338767, “A Molecular Toolbox of Positron Emission Tomography Tracers for General Anesthesia Mechanism Research” (J Med Chem, 2023)

Experiments:
[1] = Drug distribution in human parietal cortex assessed as dissociation constant
[2] = Drug distribution in human occipital cortex assessed as dissociation constant
[3] = Dissociation constant, pKa of the compound; type: physicochemical
[4] = Drug distribution in human caudate nucleus assessed as maximum binding
[5] = Drug distribution in human frontal cortex assessed as dissociation constant
[6] = Drug distribution in human brain assessed as maximum binding
[7] = Drug distribution in human occipital cortex assessed as maximum binding
[8] = Drug distribution in human caudate nucleus assessed as dissociation constant
[9] = Drug distribution in human cerebellum assessed as maximum binding
[10] = Drug distribution in human frontal cortex assessed as maximum binding
[11] = Drug distribution in human parietal cortex assessed as maximum binding
[12] = Drug distribution in human temporal cortex assessed as dissociation constant
[13] = Drug distribution in human cingulate cortex assessed as maximum binding
[14] = Drug distribution in human brain assessed as dissociation constant
[15] = Drug distribution in human cingulate cortex assessed as dissociation constant
[16] = Drug distribution in human cerebellum assessed as dissociation constant
[17] = Drug distribution in human temporal cortex assessed as maximum binding

Molecule `CC(C)(O)[C@H]1C[C@@]23CC[C@]1(O[11CH3])[C@@H]1Oc4c(O)ccc5c4[C@@]12CCN(CC1CC1)[C@@H]3C5` has a Kd [1] of 0.76 nM, a Kd [2] of 0.88 nM and a pKa [3] of 9.48. It also gave a Bmax [4] of 19.9 nM, a Kd [5] of 0.68 nM and a Bmax [6] of 18.6 nM. The Bmax [7] was 2.3 nM, the Kd [8] was 1.16 nM and the Bmax [9] was 6.8 nM. For the same molecule, the Bmax [10] was 13.1 nM, the Bmax [11] was 12 nM and the Kd [12] was 0.86 nM. It also gave a Bmax [13] of 20.5 nM, a Kd [14] of 0.73 nM and a Kd [15] of 1.06 nM. It also gave a Kd [16] of 0.69 nM and a Bmax [17] of 13.4 nM.
